In patent US5738858A (dated 1998):

Target: T1, LRAT (Bos taurus, UniProt Q9BGL2)
T1 sequence (Q9BGL2 1-230): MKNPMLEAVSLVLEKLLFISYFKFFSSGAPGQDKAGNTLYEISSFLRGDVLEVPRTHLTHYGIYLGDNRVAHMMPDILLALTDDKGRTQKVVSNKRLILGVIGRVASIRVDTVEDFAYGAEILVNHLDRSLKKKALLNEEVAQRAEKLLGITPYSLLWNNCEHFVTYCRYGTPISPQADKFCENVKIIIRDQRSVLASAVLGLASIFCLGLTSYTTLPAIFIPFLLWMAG
Experiment: In vitro microsomal esterification of retinol, LRAT catalyzed (retinyl laurate formation)
Details: 100 μM; Table 2; 1 hour, 37° C.

With `CCCCCCCC/C=C\CCCCCCCC[N+](C)(C)[O-]` [oleamine oxide] the “% INHIB. LRAT” value was 0%.
